How the values were obtained:
MMP-9 = test: MMP enzyme activity in gelatin zymography, test agent in wash and reaction buffer; format: biochemical, Baby Hamster Kidney (BHK) cells and human T lymphocytes; conditions: agent in incubation buffers during zymogram development; MMP-9 from BHK cells or T lymphocytes
Description: The analysis of cell conditioned medium in zymography is a reflection of the amount of MMPs that was produced by the particular culture. […] An inhibitor of MMP activity prevents gelatin degradation by gelatinases and the resultant size of the band of gelatinases would be smaller as compared to that obtained in the absence of inhibitors.

T lymphocytes = test: Migration assay across fibronectin-coated Boyden chamber; format: cell-based, human; conditions: 3 days treatment, 1000 IU/ml
Protocol: (§1) Cells were left for 69 h at 37° C., then collected, counted and resuspended in fresh AIM-V at density of 500,000 cells per ml. […] Thereafter, 500 μl (250,000 cells) of the suspension was taken for migration assays described below. Alternatively, 100 μl (50,000 cells) of cell suspension was added to each individual well of a 96-well plate already containing microglia or U937 monocytoid cells (see below).
To address the migration capacity of T lymphocytes, 2×10^5 T lymphocytes in 500 μl of 2.5% fetal calf serum (FCS) containing AIM-V were seeded into the top compartment of a Boyden chamber (Collaborative Biomedical Products, Bedford, Md.). This chamber consists of two compartments separated by a polycarbonate membrane filter (9 mm in diameter, with 3 μm pores) precoated on its upper surface with fibronectin. Fibronectin was employed to simulate the basal lamina.
The bottom compartment of the migration chamber contained 10% FCS-supplemented AIM-V; the higher concentration of FCS in the bottom chamber served as a directional gradient (77). After 5 h at 37° C., the content of the lower chamber was collected, and the number of migrated T lymphocytes was counted with the Coulter Counter Z1.

[1] = system: MMP-9 production by T lymphocytes; test: MMP-9 production by anti-CD3 activated T lymphocytes (zymography of conditioned medium); format: cell-based, human; conditions: 1000 IU/ml recombinant interferon β-1b
Protocol: Heparinized blood was collected from normal volunteers, and subjected to Ficoll-Hypaque (Pharmacia Biotech, Mississauga, Ontario) centrifugation to obtain peripheral blood mononuclear cells (PEMNCs) as described previously (15). After two washes, cells were suspended at a density of 1–2 million/ml in horizontal T-25 flasks (Nunc, Becton Dickinson, Mississauga, Ontario) in the serum free medium, AIM-V (GIBCO/BRL), to which 1 ng/ml of an anti-CD3 antibody (OKT3, compliments of Jack Antel, Montreal, Canada) was added. Three hours after the anti-CD3 addition, the T-25 flasks were stood upright from their horizontal position in order to […] monocytes that had adhered. Floating cells, which were mostly lymphocytes, were left for a period of 72 hours at 37° C. […] Henceforth, given that the majority of cells in the MNC population are T lymphocytes, these will be referred to as T lymphocytes.
as §1

inhibition of MMP-9 enzymatic activity (size of gelatinase band in zymogram) (MMP-9): not a direct MMP activity inhibitor
Substance: IFNβ-1b: recombinant interferon β-1b, used as positive control
decrease of T lymphocyte migration (T lymphocytes): 20–50% | production of MMP-9 by T lymphocytes compared to controls [1]: produced less MMP-9 | production of MMP-9 by T lymphocytes compared to controls ([1]; listed as Interferon β): inhibited

— US7033582B2 (Teva Pharmaceutical Industries, Ltd., priority 2000, dated 2006)
